Values quoted from earlier work, collected in PMC4815068, “A phase I study of high-dose rosuvastatin with standard dose erlotinib in patients with advanced solid malignancies” (Journal of Translational Medicine, 2016).

Assays:
[1] = system: recurrent SCC patients; settings: × 21 days in a 28-day cycle, recurrent SCC n = 26; cited from earlier work
[2] = system: patients with solid tumors; settings: 1-week of consecutive dosing, 3-week break every 28-day cycle, n = 88; cited from earlier work
[3] = system: SCC, NSCLC and colon cancer cell lines; settings: concentrations between 1 and 10 μM; cited from earlier work

CC[C@H](C)C(=O)O[C@H]1C[C@@H](C)C=C2C=C[C@H](C)[C@H](CC[C@@H]3C[C@@H](O)CC(=O)O3)[C@H]21 [lovastatin]
MTD of lovastatin [1]: 7.5 mg/kg/day | MTD of lovastatin monotherapy [2]: 25 mg/kg/day | Cytotoxicity of combination treatment with lovastatin and EGFR-TKIs [3]: synergistic cytotoxicity
